Biological target: cathepsin B (Homo sapiens (Human), UniProt P07858)
Assay: Inhibition of cathepsin B, fluorogenic substrate Cbz-Phe-Arg-AMC
Conditions: read-out: Cathepsin B IC50; at 30 min

- IC50: 390 µM
SMILES: CCOC(=O)[C@@H]1O[C@H]1C(=O)N(CC(N)=O)NC(=O)C1CCCN1C(C)=O (stereo partly shown) [LI-1]

— patent US9345789B2, “Specific inhibitors and active site probes for legumain” (The Board of Trustees of the Leland Stanford Junior …, priority 2009, dated 2016)
